Source: paper PMC4227303

Test system: N=C(N)NCCCCN
Assay: purified protein
Settings: Tris pH 9, agmatine sulfate 100 μM to 30 mM

Substance	Km (37 °C) [mM]	kcat (37 °C) [s⁻¹]	Km (25 °C) [mM]	kcat (25 °C) [s⁻¹]
Agu2A (Pseudomonas aeruginosa UCBPP-PA14)	0.136 ± 0.040	14.12 ± 0.49		
Agu2A′ (Pseudomonas aeruginosa UCBPP-PA14)			2.624 ± 1.125	33.27 ± 4.22
